Tested on: control CNiFER (clone #128C3)
Test: Control CNiFER
Format: cell-based
Settings: highest concentration, 1000 nM (Figure 1L)

SMILES: CC(=O)OCC[N+](C)(C)C [ACh, acetylcholine]
- FRET response of control CNiFERs: small response

Source: PMC9388559 (Angewandte Chemie (International ed. in English), 2022)
